US20260384449A1, “MACROCYCLIC AMINOPYRIDINE COMPOUNDS AS EGFR INHIBITORS” (published 2026)

Chains of the proteins cited; added tags and fusions are not shown. Lines headed by an entry give the natural chain unless they say otherwise; changes in a name come on top. A line that says so, or that is headed by a name, gives the form on record, which may keep a tag or linker. Residues count along the entry.
UniProt P00533, 25-1210 C797S/L858R limits assumed: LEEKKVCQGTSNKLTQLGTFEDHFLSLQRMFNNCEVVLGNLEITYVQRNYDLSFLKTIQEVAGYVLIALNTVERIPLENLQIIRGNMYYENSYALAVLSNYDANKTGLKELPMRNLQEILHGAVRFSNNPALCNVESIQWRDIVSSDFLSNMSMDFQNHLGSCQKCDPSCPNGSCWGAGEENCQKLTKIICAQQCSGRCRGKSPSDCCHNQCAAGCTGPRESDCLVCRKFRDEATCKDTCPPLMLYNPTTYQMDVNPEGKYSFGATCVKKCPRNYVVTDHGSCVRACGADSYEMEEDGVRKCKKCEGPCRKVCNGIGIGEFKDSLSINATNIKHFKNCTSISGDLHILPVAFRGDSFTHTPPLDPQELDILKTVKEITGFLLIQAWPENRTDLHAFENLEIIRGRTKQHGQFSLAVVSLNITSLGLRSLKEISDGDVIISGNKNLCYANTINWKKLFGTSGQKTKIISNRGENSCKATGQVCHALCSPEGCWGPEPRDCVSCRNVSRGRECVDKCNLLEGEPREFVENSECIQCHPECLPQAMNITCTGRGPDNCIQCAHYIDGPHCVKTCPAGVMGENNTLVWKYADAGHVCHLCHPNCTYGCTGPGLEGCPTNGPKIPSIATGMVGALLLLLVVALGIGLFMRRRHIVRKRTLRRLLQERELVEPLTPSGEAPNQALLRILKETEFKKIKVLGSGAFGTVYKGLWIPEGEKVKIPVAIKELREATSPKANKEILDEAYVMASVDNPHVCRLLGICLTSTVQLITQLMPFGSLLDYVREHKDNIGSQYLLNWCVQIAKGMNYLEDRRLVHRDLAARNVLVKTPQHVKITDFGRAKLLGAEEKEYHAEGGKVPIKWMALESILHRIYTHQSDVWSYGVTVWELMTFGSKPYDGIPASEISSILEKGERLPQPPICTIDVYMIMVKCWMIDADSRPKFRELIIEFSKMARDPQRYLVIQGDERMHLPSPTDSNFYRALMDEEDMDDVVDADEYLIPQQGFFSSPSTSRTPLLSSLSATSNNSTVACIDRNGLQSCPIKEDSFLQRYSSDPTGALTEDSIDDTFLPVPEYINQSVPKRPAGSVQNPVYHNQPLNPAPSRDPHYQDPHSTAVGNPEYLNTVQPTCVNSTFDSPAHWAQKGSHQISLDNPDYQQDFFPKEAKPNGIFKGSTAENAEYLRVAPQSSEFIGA
UniProt P00533, 25-1210 T790M/C797S/L858R limits assumed: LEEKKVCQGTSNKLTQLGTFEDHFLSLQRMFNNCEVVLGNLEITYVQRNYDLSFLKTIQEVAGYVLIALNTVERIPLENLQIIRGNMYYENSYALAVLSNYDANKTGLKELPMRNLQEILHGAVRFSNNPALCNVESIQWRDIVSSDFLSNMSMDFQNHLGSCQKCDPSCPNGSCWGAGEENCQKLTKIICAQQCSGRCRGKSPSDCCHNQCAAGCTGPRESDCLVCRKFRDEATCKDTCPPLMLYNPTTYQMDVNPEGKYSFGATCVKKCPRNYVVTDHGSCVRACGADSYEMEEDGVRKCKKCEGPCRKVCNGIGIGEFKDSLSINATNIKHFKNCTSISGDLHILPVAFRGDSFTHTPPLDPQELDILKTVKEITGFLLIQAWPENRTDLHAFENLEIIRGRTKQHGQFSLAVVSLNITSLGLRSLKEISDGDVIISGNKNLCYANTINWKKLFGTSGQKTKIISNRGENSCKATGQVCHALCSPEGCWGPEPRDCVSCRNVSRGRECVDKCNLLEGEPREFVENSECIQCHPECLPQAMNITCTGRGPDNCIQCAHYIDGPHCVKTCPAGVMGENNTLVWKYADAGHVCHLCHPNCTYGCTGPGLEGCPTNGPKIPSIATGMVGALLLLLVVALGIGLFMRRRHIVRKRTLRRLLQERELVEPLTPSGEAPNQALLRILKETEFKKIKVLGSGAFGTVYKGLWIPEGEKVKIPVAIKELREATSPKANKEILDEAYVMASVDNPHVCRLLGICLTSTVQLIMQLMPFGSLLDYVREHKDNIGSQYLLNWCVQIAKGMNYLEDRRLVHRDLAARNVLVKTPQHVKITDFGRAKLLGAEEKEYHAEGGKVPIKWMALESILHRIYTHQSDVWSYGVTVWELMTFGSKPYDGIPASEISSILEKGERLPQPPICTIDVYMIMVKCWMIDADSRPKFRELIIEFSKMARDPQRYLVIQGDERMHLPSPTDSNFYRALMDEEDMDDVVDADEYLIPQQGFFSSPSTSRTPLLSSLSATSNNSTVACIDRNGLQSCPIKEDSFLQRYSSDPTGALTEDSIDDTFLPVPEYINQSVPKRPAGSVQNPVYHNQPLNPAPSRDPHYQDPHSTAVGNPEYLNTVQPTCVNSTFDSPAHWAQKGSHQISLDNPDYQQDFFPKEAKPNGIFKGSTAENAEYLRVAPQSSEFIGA
UniProt P00533, with tags, fused parts or gaps DEL746-750/C797S limits assumed: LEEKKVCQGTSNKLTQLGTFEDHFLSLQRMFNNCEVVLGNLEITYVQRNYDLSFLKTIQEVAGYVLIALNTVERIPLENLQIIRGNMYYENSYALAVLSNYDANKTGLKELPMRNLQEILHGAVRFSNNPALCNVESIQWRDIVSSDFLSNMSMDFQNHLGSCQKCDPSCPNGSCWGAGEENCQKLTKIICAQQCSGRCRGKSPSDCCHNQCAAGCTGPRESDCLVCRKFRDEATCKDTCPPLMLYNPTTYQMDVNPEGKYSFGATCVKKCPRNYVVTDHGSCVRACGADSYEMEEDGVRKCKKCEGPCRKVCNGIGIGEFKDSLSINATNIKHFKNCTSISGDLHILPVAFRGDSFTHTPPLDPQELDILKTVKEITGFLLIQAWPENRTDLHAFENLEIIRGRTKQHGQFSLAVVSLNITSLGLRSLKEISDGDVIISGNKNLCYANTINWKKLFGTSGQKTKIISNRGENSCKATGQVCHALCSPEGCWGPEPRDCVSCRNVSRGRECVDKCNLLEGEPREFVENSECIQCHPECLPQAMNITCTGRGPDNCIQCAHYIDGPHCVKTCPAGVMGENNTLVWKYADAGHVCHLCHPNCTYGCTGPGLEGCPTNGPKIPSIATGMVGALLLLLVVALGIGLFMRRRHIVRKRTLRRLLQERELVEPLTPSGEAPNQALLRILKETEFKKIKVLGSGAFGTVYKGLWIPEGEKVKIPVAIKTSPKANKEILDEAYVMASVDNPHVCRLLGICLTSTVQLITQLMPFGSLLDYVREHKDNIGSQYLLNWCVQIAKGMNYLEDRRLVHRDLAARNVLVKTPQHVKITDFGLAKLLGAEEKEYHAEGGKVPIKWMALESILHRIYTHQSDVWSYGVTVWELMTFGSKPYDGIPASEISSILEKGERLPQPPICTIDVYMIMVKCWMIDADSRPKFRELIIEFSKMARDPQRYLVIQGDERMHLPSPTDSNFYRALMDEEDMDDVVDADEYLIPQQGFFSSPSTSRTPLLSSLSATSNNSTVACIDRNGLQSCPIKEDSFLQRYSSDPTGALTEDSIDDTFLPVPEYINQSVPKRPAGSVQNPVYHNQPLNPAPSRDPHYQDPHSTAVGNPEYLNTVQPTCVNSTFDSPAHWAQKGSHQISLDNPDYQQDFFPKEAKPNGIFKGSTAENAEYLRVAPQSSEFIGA
UniProt P00533, with tags, fused parts or gaps DEL746-750/T790M/C797S limits assumed: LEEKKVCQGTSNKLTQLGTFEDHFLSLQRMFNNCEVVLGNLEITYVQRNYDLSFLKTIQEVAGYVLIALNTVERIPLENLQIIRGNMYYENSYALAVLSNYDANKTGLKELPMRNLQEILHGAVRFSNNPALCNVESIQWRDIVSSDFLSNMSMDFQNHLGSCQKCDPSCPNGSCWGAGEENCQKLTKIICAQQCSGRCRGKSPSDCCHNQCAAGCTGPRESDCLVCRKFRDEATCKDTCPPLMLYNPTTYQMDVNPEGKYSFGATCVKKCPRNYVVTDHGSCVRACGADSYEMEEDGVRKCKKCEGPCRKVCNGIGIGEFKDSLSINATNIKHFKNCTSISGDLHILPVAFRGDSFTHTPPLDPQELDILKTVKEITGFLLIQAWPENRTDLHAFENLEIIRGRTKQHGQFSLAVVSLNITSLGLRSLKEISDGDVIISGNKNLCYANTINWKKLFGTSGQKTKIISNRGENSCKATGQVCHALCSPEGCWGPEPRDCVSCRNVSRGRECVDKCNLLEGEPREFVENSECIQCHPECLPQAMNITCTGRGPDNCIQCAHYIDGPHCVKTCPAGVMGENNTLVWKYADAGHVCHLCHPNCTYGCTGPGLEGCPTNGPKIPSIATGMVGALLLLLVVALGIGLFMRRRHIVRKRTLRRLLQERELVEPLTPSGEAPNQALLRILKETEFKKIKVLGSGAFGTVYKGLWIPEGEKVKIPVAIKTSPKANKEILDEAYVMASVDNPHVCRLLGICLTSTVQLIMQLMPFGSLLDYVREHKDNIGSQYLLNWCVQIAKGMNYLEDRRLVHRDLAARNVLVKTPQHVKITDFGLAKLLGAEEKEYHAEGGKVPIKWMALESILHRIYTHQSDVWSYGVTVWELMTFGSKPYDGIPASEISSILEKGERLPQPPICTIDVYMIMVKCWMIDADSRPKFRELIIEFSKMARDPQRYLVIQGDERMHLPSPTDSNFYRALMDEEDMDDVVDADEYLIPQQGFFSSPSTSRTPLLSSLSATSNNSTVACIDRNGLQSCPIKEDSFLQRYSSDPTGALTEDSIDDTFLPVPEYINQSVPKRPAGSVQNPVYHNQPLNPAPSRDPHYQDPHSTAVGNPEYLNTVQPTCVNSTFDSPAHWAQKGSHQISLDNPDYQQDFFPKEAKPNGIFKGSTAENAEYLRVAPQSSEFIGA
UniProt P00533, 25-1210 limits assumed: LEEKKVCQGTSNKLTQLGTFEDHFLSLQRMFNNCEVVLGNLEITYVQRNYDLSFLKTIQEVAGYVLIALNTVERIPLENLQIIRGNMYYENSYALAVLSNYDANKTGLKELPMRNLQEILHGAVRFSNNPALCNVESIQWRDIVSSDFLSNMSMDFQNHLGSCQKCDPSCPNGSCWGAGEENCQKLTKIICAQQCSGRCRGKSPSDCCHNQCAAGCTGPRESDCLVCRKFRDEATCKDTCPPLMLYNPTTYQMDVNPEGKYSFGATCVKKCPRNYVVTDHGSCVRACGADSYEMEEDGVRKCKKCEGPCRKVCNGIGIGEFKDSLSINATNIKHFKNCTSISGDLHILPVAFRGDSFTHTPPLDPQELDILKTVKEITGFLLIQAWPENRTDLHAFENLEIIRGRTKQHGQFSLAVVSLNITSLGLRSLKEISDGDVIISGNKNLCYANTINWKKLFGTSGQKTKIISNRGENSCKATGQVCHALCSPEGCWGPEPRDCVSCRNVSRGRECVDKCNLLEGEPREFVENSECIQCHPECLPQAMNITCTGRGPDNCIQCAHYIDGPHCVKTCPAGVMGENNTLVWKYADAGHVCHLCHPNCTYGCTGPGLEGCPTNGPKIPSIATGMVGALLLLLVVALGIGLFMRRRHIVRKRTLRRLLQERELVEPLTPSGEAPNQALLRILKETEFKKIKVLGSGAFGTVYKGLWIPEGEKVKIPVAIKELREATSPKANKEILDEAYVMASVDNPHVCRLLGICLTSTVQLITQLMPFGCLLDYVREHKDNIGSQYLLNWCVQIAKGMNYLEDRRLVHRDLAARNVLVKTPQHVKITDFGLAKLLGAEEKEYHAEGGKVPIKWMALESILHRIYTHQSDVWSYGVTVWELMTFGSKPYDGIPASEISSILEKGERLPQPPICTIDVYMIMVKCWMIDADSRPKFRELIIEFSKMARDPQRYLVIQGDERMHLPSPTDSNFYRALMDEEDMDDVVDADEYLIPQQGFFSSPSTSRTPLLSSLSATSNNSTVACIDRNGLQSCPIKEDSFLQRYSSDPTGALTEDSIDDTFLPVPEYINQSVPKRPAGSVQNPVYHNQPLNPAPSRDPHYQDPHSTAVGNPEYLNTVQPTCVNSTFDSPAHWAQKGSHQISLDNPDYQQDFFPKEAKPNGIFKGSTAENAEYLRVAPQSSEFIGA

How the values were obtained:
[1] = target: EGFR D19TMCS (del19/T790M/C797S) (Homo sapiens, UniProt P00533, C797S/DEL746-750/T790M); test: Biochemical EGFR kinase inhibition (Lance Ultra TR-FRET), del19/T790M/C797S; conditions: read-out: EGFR D19TMCS IC50
[2] = target: EGFR LRTMCS (L858R/T790M/C797S) (Homo sapiens, UniProt P00533, C797S/L858R/T790M); test: Biochemical EGFR kinase inhibition (Lance Ultra TR-FRET), L858R/T790M/C797S; conditions: read-out: EGFR LRTMCS IC50
EGFR WT = EGFR WT (Homo sapiens, UniProt P00533); test: Biochemical EGFR kinase inhibition (Lance Ultra TR-FRET), wildtype; conditions: read-out: EGFR WT IC50; ATP at Km
EGFR LRCS (L858R/C797S) = EGFR LRCS (L858R/C797S) (Homo sapiens, UniProt P00533, C797S/L858R); test: Biochemical EGFR kinase inhibition (Lance Ultra TR-FRET), L858R/C797S; conditions: read-out: EGFR LRCS IC50
EGFR D19CS (del19/C797S) = EGFR D19CS (del19/C797S) (Homo sapiens, UniProt P00533, C797S/DEL746-750); test: Biochemical EGFR kinase inhibition (Lance Ultra TR-FRET), del19/C797S; conditions: read-out: EGFR D19CS IC50

Cc1nn(C)c2c1-c1nccc(n1)Nc1cc(c(C#Cc3cn(C)nc3C#N)cn1)NCC[C@H](C)O2
IC50 ([1]; 1 mM ATP): < 10 nM | IC50 ([1]; ATP at Km): < 10 nM | IC50 ([2]; 1 mM ATP): < 10 nM | IC50 ([2]; ATP at Km): < 10 nM | IC50 (EGFR WT): < 10 nM | IC50 (EGFR LRCS (L858R/C797S); 1 mM ATP): 10 to 100 nM | IC50 (EGFR LRCS (L858R/C797S); ATP at Km): < 10 nM | IC50 (EGFR D19CS (del19/C797S); 1 mM ATP): < 10 nM | IC50 (EGFR D19CS (del19/C797S); ATP at Km): < 10 nM

CCn1ncc2c1OCC[C@H](C)Nc1cc(ncc1C#Cc1cnn(C(F)F)c1)Nc1ccnc-2n1
IC50 ([1]; 1 mM ATP): < 10 nM | IC50 ([1]; ATP at Km): < 10 nM | IC50 ([2]; 1 mM ATP): < 10 nM | IC50 ([2]; ATP at Km): < 10 nM | IC50 (EGFR WT): 10 to 100 nM | IC50 (EGFR LRCS (L858R/C797S); 1 mM ATP): > 1000 nM | IC50 (EGFR LRCS (L858R/C797S); ATP at Km): 10 to 100 nM | IC50 (EGFR D19CS (del19/C797S); 1 mM ATP): 100 to 1000 nM | IC50 (EGFR D19CS (del19/C797S); ATP at Km): 10 to 100 nM

C[C@H]1CCOc2c(cnn2C)-c2nccc(n2)Nc2cc(c(C#Cc3cnn(C)c3C3CC3)cn2)N1
IC50 ([1]; 1 mM ATP): < 10 nM | IC50 ([1]; ATP at Km): < 10 nM | IC50 ([2]; 1 mM ATP): < 10 nM | IC50 ([2]; ATP at Km): < 10 nM | IC50 (EGFR WT): < 10 nM | IC50 (EGFR LRCS (L858R/C797S); 1 mM ATP): 100 to 1000 nM | IC50 (EGFR LRCS (L858R/C797S); ATP at Km): < 10 nM | IC50 (EGFR D19CS (del19/C797S); 1 mM ATP): < 10 nM | IC50 (EGFR D19CS (del19/C797S); ATP at Km): < 10 nM

Cc1nn(C(F)(F)F)c(C)c1C#Cc1cnc2cc1NCC[C@H](C)Oc1c(c(C)nn1C)-c1nccc(n1)N2
IC50 ([1]; 1 mM ATP): 10 to 100 nM | IC50 ([1]; ATP at Km): < 10 nM | IC50 ([2]; 1 mM ATP): 100 to 1000 nM | IC50 ([2]; ATP at Km): < 10 nM | IC50 (EGFR WT): 10 to 100 nM | IC50 (EGFR LRCS (L858R/C797S); 1 mM ATP): 100 to 1000 nM | IC50 (EGFR LRCS (L858R/C797S); ATP at Km): < 10 nM | IC50 (EGFR D19CS (del19/C797S); 1 mM ATP): 10 to 100 nM | IC50 (EGFR D19CS (del19/C797S); ATP at Km): 10 to 100 nM

C[C@H]1CCNc2cc(ncc2C#Cc2cccnc2)Nc2ccnc(n2)-c2cnn(C)c2O1
IC50 ([1]; 1 mM ATP): < 10 nM | IC50 ([1]; ATP at Km): < 10 nM | IC50 ([2]; 1 mM ATP): < 10 nM | IC50 ([2]; ATP at Km): < 10 nM | IC50 (EGFR WT): < 10 nM | IC50 (EGFR LRCS (L858R/C797S); 1 mM ATP): 10 to 100 nM | IC50 (EGFR LRCS (L858R/C797S); ATP at Km): < 10 nM | IC50 (EGFR D19CS (del19/C797S); 1 mM ATP): < 10 nM | IC50 (EGFR D19CS (del19/C797S); ATP at Km): < 10 nM

Cn1ncc2c1OCC1(CNc3cc(ncc3C#Cc3cnn(CC(F)(F)F)c3)Nc3ccnc-2n3)COC1
IC50 ([1]; 1 mM ATP): < 10 nM | IC50 ([1]; ATP at Km): < 10 nM | IC50 ([2]; 1 mM ATP): 10 to 100 nM | IC50 ([2]; ATP at Km): < 10 nM | IC50 (EGFR WT): 100 to 1000 nM | IC50 (EGFR LRCS (L858R/C797S); 1 mM ATP): > 1000 nM | IC50 (EGFR LRCS (L858R/C797S); ATP at Km): 100 to 1000 nM | IC50 (EGFR D19CS (del19/C797S); 1 mM ATP): 100 to 1000 nM | IC50 (EGFR D19CS (del19/C797S); ATP at Km): 100 to 1000 nM

Cn1ncc2c1OC[C@H](F)CNc1cc(ncc1C#Cc1cnn(CC(F)(F)F)c1)Nc1ccnc-2n1
IC50 ([1]; 1 mM ATP): 100 to 1000 nM | IC50 ([1]; ATP at Km): 10 to 100 nM | IC50 ([2]; 1 mM ATP): > 1000 nM | IC50 ([2]; ATP at Km): 10 to 100 nM | IC50 (EGFR WT): > 1000 nM | IC50 (EGFR LRCS (L858R/C797S); 1 mM ATP): > 1000 nM | IC50 (EGFR LRCS (L858R/C797S); ATP at Km): > 1000 nM | IC50 (EGFR D19CS (del19/C797S); 1 mM ATP): > 1000 nM | IC50 (EGFR D19CS (del19/C797S); ATP at Km): > 1000 nM

C[C@H]1CCOc2c(cnn2C)-c2cc(ccn2)Nc2cc(c(C#Cc3cnn(C)c3)cn2)N1
IC50 ([1]; 1 mM ATP): < 10 nM | IC50 ([1]; ATP at Km): < 10 nM | IC50 ([2]; 1 mM ATP): 10 to 100 nM | IC50 ([2]; ATP at Km): < 10 nM | IC50 (EGFR WT): 10 to 100 nM | IC50 (EGFR LRCS (L858R/C797S); 1 mM ATP): 100 to 1000 nM | IC50 (EGFR LRCS (L858R/C797S); ATP at Km): 10 to 100 nM | IC50 (EGFR D19CS (del19/C797S); 1 mM ATP): 100 to 1000 nM | IC50 (EGFR D19CS (del19/C797S); ATP at Km): 10 to 100 nM

Cn1ncc2c1OCC1(CNc3cc(ncc3C#Cc3cnn(C(F)(F)F)c3)Nc3ccnc-2n3)COC1
IC50 ([1]; 1 mM ATP): 10 to 100 nM | IC50 ([1]; ATP at Km): < 10 nM | IC50 ([2]; 1 mM ATP): 10 to 100 nM | IC50 ([2]; ATP at Km): < 10 nM | IC50 (EGFR WT): 100 to 1000 nM | IC50 (EGFR LRCS (L858R/C797S); 1 mM ATP): > 1000 nM | IC50 (EGFR LRCS (L858R/C797S); ATP at Km): 100 to 1000 nM | IC50 (EGFR D19CS (del19/C797S); 1 mM ATP): > 1000 nM | IC50 (EGFR D19CS (del19/C797S); ATP at Km): 100 to 1000 nM

Cc1cc2nc(n1)-c1cnn(C)c1OCC[C@H](C)Nc1cc(ncc1C#Cc1cnn(C)c1)N2
IC50 ([1]; 1 mM ATP): > 1000 nM | IC50 ([1]; ATP at Km): 10 to 100 nM | IC50 ([2]; 1 mM ATP): > 1000 nM | IC50 ([2]; ATP at Km): 100 to 1000 nM | IC50 (EGFR WT): > 1000 nM | IC50 (EGFR LRCS (L858R/C797S); 1 mM ATP): > 1000 nM | IC50 (EGFR LRCS (L858R/C797S); ATP at Km): > 1000 nM | IC50 (EGFR D19CS (del19/C797S); 1 mM ATP): > 1000 nM | IC50 (EGFR D19CS (del19/C797S); ATP at Km): > 1000 nM

Cn1cc(C#Cc2cnc3cc2NCC2(CC2)COc2c(cnn2C)-c2nccc(n2)N3)cn1
IC50 ([1]; 1 mM ATP): < 10 nM | IC50 ([1]; ATP at Km): < 10 nM | IC50 ([2]; 1 mM ATP): 10 to 100 nM | IC50 ([2]; ATP at Km): < 10 nM | IC50 (EGFR WT): 10 to 100 nM | IC50 (EGFR LRCS (L858R/C797S); 1 mM ATP): > 1000 nM | IC50 (EGFR LRCS (L858R/C797S); ATP at Km): 10 to 100 nM | IC50 (EGFR D19CS (del19/C797S); 1 mM ATP): 100 to 1000 nM | IC50 (EGFR D19CS (del19/C797S); ATP at Km): 10 to 100 nM

C[C@H]1CCOc2c(cnn2C)-c2nccc(n2)Nc2cc(c(C#Cc3cnn(CC(F)F)c3)cn2)N1
IC50 ([1]; 1 mM ATP): < 10 nM | IC50 ([1]; ATP at Km): < 10 nM | IC50 ([2]; 1 mM ATP): < 10 nM | IC50 ([2]; ATP at Km): < 10 nM | IC50 (EGFR WT): < 10 nM | IC50 (EGFR LRCS (L858R/C797S); 1 mM ATP): 10 to 100 nM | IC50 (EGFR LRCS (L858R/C797S); ATP at Km): < 10 nM | IC50 (EGFR D19CS (del19/C797S); 1 mM ATP): < 10 nM | IC50 (EGFR D19CS (del19/C797S); ATP at Km): < 10 nM

COc1nn(C)cc1C#Cc1cnc2cc1N[C@@H](C)CCOc1c(c(C)nn1C)-c1nccc(n1)N2
IC50 ([1]; 1 mM ATP): < 10 nM | IC50 ([1]; ATP at Km): < 10 nM | IC50 ([2]; 1 mM ATP): < 10 nM | IC50 ([2]; ATP at Km): < 10 nM | IC50 (EGFR WT): 10 to 100 nM | IC50 (EGFR LRCS (L858R/C797S); 1 mM ATP): 10 to 100 nM | IC50 (EGFR LRCS (L858R/C797S); ATP at Km): < 10 nM | IC50 (EGFR D19CS (del19/C797S); 1 mM ATP): 10 to 100 nM | IC50 (EGFR D19CS (del19/C797S); ATP at Km): < 10 nM

Like-named read-outs stand apart in the source and are kept apart here.
